# The entries are a selection whose mix differs from that of the whole data set. Inconclusive results are not listed. The source made the active and inactive calls. Calls follow the shape of the dose curve; as a rule, active = well fitted inhibition curve with a large enough effect; inconclusive = small, poorly fitted or top-dose-only effect; inactive = no such curve, though single readings can be large or run the other way.
# Chains of the proteins cited; added tags and fusions are not shown.
# UniProt P16050, whole entry: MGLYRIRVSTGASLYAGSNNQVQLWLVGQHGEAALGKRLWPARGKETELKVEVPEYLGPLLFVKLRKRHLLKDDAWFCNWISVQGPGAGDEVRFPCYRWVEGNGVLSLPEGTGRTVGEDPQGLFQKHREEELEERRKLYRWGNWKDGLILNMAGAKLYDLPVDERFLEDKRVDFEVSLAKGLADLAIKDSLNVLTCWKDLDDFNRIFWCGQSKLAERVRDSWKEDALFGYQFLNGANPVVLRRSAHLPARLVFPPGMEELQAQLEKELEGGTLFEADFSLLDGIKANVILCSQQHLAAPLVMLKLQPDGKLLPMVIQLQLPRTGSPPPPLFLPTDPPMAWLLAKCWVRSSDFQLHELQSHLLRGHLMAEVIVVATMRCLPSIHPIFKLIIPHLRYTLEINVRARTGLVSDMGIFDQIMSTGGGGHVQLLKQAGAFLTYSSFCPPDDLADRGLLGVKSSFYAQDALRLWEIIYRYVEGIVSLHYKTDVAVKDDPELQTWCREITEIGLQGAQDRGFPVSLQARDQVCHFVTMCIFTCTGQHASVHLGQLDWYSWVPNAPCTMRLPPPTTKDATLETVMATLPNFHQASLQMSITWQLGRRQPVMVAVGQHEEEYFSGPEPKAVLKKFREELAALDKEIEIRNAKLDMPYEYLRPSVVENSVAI
# Biological target: Polyunsaturated fatty acid lipoxygenase ALOX15 (Homo sapiens) (UniProt P16050)
# Assay: qHTS Assay for Inhibitors of 15-hLO (15-human lipoxygenase); also: nearly all actives have a fitted effect of over 55% in size
# Settings: purified 15hLO-1, xylenol orange hydroperoxide absorbance; at 57.1 µM (top of the series) unless noted
# % is scaled to controls: 0 for no effect and ±100 for the full control effect.
row,Compound,"activity change, negative = inhibition"
1,COc1ccc(NC2CCN(CCc3ccccc3)CC2)c(OC)c1,inactive: -26.1%
2,O=C(OC1CN2CCC1CC2)C1c2ccccc2Oc2ccccc21 (stereo unspecified),inactive: -0.0659%
3,CCOP(=O)(Cl)Cl,inactive: -16.9%
4,NC1CCCCC1.NP(=O)(O)N(CCCl)CCCl,inactive: 10.2% [at 11.4 µM]
5,N#CC1(Nc2ccccc2)CCN(CCc2ccccc2)CC1,inactive: 7.18%
6,ClCCOP(OCCCl)OCCCl,inactive: -5.47%
7,N/C(=N\O)c1c(N)no[n+]1[O-],inactive: 8.27%
8,CCOc1ncccc1C(=O)NCC1(N2CCOCC2)CCCCC1,inactive: 2.08%
9,O=C(O)C1(Nc2ccccc2)CCN(Cc2ccccc2)CC1,inactive: 4.52% [at 11.4 µM]
10,CCC(CO)(C(=O)OC1CN2CCC1CC2)c1ccccc1 (stereo unspecified),inactive: -0.339%
11,Fc1ccccc1NC1CCN(Cc2ccccc2)CC1,inactive: -9.76%

# — PubChem BioAssay AID887 (National Center for Advancing Translational Sciences (NCATS), 2007)
